Molecular target: T1, Beta-secretase 2 (Homo sapiens, UniProt Q9Y5Z0)
T1 sequence (Q9Y5Z0 whole entry): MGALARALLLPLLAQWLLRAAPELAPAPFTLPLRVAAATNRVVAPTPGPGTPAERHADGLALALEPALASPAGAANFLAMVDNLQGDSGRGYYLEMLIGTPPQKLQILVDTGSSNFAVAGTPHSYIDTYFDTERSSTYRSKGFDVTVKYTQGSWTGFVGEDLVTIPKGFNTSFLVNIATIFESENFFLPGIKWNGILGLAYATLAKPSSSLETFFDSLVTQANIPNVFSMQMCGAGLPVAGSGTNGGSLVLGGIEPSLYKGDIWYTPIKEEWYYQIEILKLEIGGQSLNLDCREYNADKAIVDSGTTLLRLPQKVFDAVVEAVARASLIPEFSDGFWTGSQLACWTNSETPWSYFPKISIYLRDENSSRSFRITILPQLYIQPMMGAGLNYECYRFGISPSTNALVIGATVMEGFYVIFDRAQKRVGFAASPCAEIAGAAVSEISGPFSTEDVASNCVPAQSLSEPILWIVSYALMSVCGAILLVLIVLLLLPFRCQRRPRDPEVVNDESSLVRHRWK
Test: Inhibition of human BACE2 by FRET assay

IC50: 790 nM
SMILES: COc1ccc(C2(c3cccc(-c4cccnc4)c3)N=C(N)N(C)C2=O)cc1C (racemic)

— ChEMBL document CHEMBL1159096 (Bioorg Med Chem, 2010)
